The entries are a selection whose mix differs from that of the whole data set. Some structures show a salt or complex split into parts, the way the source records it. Calls of active or inactive are those of the source.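 The calls were made as follows: active = inhibition above about 50% at the single tested dose (limit read from the data); inactive = the rest.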

Amino acid sequences for entries named in this document (tags omitted). Residues count along the entry.
UniProt Q9GZR1, 628-1112 limits assumed: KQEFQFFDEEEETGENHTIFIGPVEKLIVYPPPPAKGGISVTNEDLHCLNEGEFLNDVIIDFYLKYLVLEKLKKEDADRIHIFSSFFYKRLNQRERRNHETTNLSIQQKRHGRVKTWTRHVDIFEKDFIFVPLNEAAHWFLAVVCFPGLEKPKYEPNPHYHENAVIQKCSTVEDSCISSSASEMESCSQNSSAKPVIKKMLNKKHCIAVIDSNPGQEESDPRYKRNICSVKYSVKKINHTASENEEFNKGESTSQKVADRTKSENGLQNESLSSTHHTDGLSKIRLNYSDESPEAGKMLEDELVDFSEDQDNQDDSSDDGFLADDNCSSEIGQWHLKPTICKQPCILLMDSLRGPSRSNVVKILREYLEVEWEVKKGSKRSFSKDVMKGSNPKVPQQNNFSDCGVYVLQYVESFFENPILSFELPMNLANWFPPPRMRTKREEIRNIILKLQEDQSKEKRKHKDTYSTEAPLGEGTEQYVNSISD

In PubChem BioAssay AID2599 (Sanford-Burnham Center for Chemical Genomics, 2010) one finds inhibition data, which are given here for 31 compounds.

This test has as its target Sentrin-specific protease 6 (Homo sapiens) (UniProt Q9GZR1). The experiment in a line: inhibition of human SENP6 catalytic domain – biochemical, luminescence, uHTS, primary screen (AID 2599).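 Also: plate controls were DMSO wells with enzyme for no effect and DMSO wells lacking enzyme for full effect.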 Conditions: Recombinant SENP6 catalytic domain, aminoluciferin luminescence; at 10 µM; stronger effect = higher value.
Broadly, the inhibition is the change of the read-out against control, counted positive when it falls. On to `CCOC(=O)c1ccc(NP(C)(=O)Oc2ccc(Cl)cc2)cc1` (stereo unspecified), for which the inhibition was inactive: 1.96%.
In the case of `CP(=O)(OC12CC3CC(CC(C3)C1)C2)OC12CC3CC(CC(C3)C1)C2`, the inhibition was inactive: -0.961%.
With `COc1ccc(OP(C)(=O)Nc2ccc(Br)cc2)cc1` (stereo unspecified) the figure was inactive: -0.605%.
On to `CCN(CC)CC(O)COC(=O)C(O)(c1ccccc1)C1CCCCC1` (stereo unspecified), for which the inhibition is inactive: -5.91%.
Regarding `O=C(OCCCN1CCCC1)C(O)(c1ccccc1)C1CCCCC1` (stereo unspecified), the inhibition is inactive: -3.48%.
On to `COc1ccccc1OP(C)(=O)Nc1c(C)n(C)n(-c2ccccc2)c1=O` (stereo unspecified), for which the inhibition was inactive: -19.6%.
For the compound `CCc1ccc(OP(C)(=O)Nc2cccnc2)cc1` (stereo unspecified), the inhibition was inactive: 15.9%.
Under `CP(=O)(Oc1ccccc1)N1CCOC1=O` (stereo unspecified) stands inactive: -27.4%; under `COc1ccccc1OP(C)(=O)Nc1ccccc1Br` (stereo unspecified), inactive: 9.63%.
For the compound `CC(C)(C)c1ccc(OP(C)(=O)O)cc1`, the inhibition is inactive: -12.7%.
As for `CP(=O)(Nc1ccc(Cl)cc1)Oc1ccc(F)cc1` (stereo unspecified), the inhibition is inactive: -20%.
`CN(C)C(=O)c1c([N+](=O)[O-])cc([N+](=O)[O-])cc1[N+](=O)[O-]`: the inhibition was inactive: 32.2%.
For the compound `CP(=O)(Nc1ccc(SC(F)(F)F)cc1)Oc1ccc(F)cc1` (stereo unspecified), the inhibition was inactive: -5.35%.
As to `CCOP(C)(=S)SCC(=O)NC(C)(CC)C(=O)O` (stereo unspecified), the inhibition is inactive: -0.983%.
For the compound `CP(=O)(Nc1ccc2c(c1)OCCO2)Oc1ccccc1` (stereo unspecified), the inhibition is inactive: 3.67%.
For `Cc1ccccc1NP(C)(=O)Nc1ccccc1C`, the inhibition was inactive: -22.1%.
Turning to `COc1ccc(OP(C)(=O)Nc2cccc(Br)c2)cc1` (stereo unspecified), the inhibition is inactive: 10.6%.
As for `CN(C)CCOC(=O)C(O)(c1ccccc1)C1CCCCC1` (stereo unspecified), the inhibition was inactive: 0.198%.
Under `COc1ccc(NP(C)(=O)Oc2ccccc2OC)cc1` (stereo unspecified) stands inactive: -32.4%; under `O=[N+]([O-])c1cc([N+](=O)[O-])c(NCC2CCS(=O)(=O)C2)c([N+](=O)[O-])c1` (stereo unspecified), inactive: 6.87%; under `CCOC(=O)c1ccc(NP(C)(=O)Oc2ccc(F)cc2)cc1` (stereo unspecified), inactive: 0.685%.
Regarding `COc1ccc(OP(C)(=O)Nc2ccc(SC(F)(F)F)cc2)cc1` (stereo unspecified), the inhibition was inactive: 4.29%.
Turning to `CCN(CC)CCCOC(=O)C(O)(c1ccccc1)C1CCCCC1` (stereo unspecified), the inhibition was inactive: -0.866%.
Consider `CP(=O)(Nc1ccccc1)Oc1ccc(F)cc1` (stereo unspecified), for which the inhibition is inactive: -25.3%.
With `O=[N+]([O-])c1cc([N+](=O)[O-])c(OC2CCCCC2O)c([N+](=O)[O-])c1` (stereo unspecified), the inhibition is inactive: 11.7%.
In the case of `CCCCCOc1ccc(NP(C)(=O)Oc2ccc(Cl)cc2Cl)cc1` (stereo unspecified), the inhibition is inactive: 8.75%.
Turning to `CP(=O)(Nc1ccccc1F)Oc1ccccc1` (stereo unspecified), the inhibition was inactive: 0.25%.
As for `CC(C)c1ccc(OP(C)(=O)Nc2ccc(SC(F)(F)F)cc2)cc1` (stereo unspecified), the inhibition was inactive: -23.7%.
In the case of `O=C(OC1CN2CCC1CC2)c1ccc([N+](=O)[O-])cc1` (stereo unspecified), the inhibition is inactive: -4.33%.
Under `O=C(OCCN1CCN(CCOCc2ccccc2)CC1)C(O)(c1ccccc1)c1ccccc1` stands inactive: -0.247%; under `COc1ccc2c(c1O)-c1c(O)c(OC)cc3c1[C@H](C2)[N+](C)(C)CC3.O=[N+]([O-])c1cc([N+](=O)[O-])c([O-])c([N+](=O)[O-])c1[O-]`, inactive: -1.34%.
